This is an account of results in US12291501B2 (University of Florida Research Foundation, Inc., priority 2021, dated 2025).

Protein sequences, listed by entry. Tags and fused reporters are not part of them. Residues count along the entry.
UniProt P36544, 23-502: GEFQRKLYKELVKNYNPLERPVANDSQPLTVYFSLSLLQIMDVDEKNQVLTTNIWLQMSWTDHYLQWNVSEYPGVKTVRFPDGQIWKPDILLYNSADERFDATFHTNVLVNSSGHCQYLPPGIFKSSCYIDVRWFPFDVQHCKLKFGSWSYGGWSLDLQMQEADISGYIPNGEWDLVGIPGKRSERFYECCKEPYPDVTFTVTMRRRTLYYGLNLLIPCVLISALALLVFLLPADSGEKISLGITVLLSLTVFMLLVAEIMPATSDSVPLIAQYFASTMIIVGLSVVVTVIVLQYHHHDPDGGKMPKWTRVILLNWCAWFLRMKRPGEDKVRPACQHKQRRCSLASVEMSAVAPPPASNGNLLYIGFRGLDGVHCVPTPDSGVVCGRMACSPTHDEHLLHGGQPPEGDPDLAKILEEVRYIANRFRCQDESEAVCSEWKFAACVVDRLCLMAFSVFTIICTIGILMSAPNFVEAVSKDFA
UniProt Q9UGM1, 26-479 limits assumed: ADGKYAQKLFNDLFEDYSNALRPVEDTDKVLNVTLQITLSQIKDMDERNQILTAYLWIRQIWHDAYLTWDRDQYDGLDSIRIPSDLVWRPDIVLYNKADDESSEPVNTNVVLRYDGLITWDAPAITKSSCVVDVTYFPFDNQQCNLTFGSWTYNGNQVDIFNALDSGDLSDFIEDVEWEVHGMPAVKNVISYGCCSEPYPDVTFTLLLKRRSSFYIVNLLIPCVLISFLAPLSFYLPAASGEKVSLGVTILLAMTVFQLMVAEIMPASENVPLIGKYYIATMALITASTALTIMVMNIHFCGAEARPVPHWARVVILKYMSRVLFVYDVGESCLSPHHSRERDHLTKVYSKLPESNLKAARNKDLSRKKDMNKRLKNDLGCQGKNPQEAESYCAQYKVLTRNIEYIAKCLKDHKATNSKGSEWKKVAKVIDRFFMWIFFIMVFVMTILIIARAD

The target of assay [1] is T1, α7 nAChR (Homo sapiens, UniProt P36544).
T1 construct: expressed in transfected cells; host or cells: Xenopus laevis oocytes, injected with in vitro transcribed RNA
The conditions noted are these: relative to ACh (Imax = 1); data taken from Papke et al. (2022); cited from earlier work.

Assay [2] addresses T1, α7 nAChR. Put plainly: α7 responses to drugs co-applied with the PAM PNU-120596 (silent agonism). The conditions noted are these: drug 30 μM + 10 μM PNU-120596; normalized to 30 μM ACh + 10 μM PNU-120596. The assay is classed as cell-based.
In assay [3] the target is T2, α9 nAChR (Homo sapiens, UniProt Q9UGM1).
T2 construct: expressed in transfected cells; host or cells: Xenopus laevis oocytes, injected with in vitro transcribed RNA
The conditions noted are these: relative to ACh (Imax = 1); data taken from Papke et al. (2022); cited from earlier work.

“And” between values parts separate entries of the source, which are not always exact repeats. Equal entries are not always repeated.

As to `CC[N+]1(CC)CCN(c2ccc(C(=O)Nc3cccc(C)n3)cc2)CC1.[I-]` [Compound 2, 1,1-diethyl-4-(4-((6-methylpyridin-2-yl)carbamoyl)phenyl)piperazin-1-ium iodide], the “α7 Imax” value in assay [1] is 0.42 ± 0.02 and 0.42. The “Response co-applied with PNU-120596, normalized to ACh co-applied with PNU-120596” value in assay [2] came to 0.17. In addition, in assay [3], the “α9 Imax” value was 1.06 ± 0.02.
